The experiment has as its target Monoaminoxidase A (Rattus norvegicus, UniProt P21396). Description: biochemical. As to conditions: read-out: Monoaminoxidase inhibition IC50.
Setting [1] is: monoaminoxidase A, rat brain homogenate, 14C-tryptamine 0.4 μmol/liter, 37° C., 20 minutes.

Sequences of proteins named here, by UniProt entry; tags and fusion partners are left off.
UniProt P21396, whole entry: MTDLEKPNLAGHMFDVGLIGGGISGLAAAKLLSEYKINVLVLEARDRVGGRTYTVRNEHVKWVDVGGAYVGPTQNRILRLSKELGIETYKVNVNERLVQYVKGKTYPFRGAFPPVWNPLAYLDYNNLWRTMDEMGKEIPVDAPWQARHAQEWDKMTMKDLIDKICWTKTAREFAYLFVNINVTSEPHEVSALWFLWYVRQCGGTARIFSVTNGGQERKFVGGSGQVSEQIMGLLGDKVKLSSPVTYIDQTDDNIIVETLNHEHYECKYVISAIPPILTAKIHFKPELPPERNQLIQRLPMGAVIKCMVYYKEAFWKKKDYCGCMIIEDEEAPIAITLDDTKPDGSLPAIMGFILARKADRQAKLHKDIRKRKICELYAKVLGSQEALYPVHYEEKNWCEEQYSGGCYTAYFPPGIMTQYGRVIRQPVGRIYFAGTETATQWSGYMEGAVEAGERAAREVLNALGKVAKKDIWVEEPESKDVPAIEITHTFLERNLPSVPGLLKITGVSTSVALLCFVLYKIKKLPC

pIC50: −log10 of the molar value. Read-outs that look alike come from different tables or passages of the source.

As for `Cc1c(C)c2ccc(OS(C)(=O)=O)cc2oc1=O` [Example 2, 7-Hydroxy-3,4-dimethylcoumarin methanesulfonate], the pIC50 is 6.96.
Take “7-Hydroxy-3-carbomethoxymethyl-4-methylcoumarin benzenesulfonate [Example 47]”: under setting [1], the pIC50 was 6.96.
Turning to `CCS(=O)(=O)Oc1ccc2c(C)c(C)c(=O)oc2c1` [Example 39, 7-Hydroxy-3,4-dimethylcoumarin ethanesulfonate], under setting [1], the negative logarithm of the IC50 (pIC50) is 8.08.

As usually defined, the pIC50 is −log10 of the IC50, conventionally taken in molar units.

The record behind these values is patent publication US4618622A, “Sulfonates of hydroxycoumarins” (priority 1982, dated 1986).
